Source: patent publication US20160252495A1 (UNIVERSITY OF BRITISH COLUMBIA, published 2016)

Molecular target: T1, hen egg white lysozyme (hen, UniProt P00698 19-147)
T1 construct: also called HEL; hen-egg lysozyme
Assay: microfluidic bead assay with hybridoma cells

B1: HyHEL5 anti-hen egg lysozyme monoclonal antibody (antibody, V domains shown)
VH: EVQLQQSGAELMKPGASVKISCKASGYTFSDYWIEWVKQRPGHGLEWIGEILPGSGSTNYHERFKGKATFTADTSSSTAYMQLNSLTSEDSGVYYCLHGNYDFDGWGQGTTLTVSS
VL: DIVLTQSPAIMSASPGEKVTMTCSASSSVNYMYWYQQKSGTSPKRWIYDTSKLASGVPVRFSGSGSGTSYSLTISSMETEDAATYYCQQWGRNPTFGGGTKLE
binding result: binds
